Assay results published in patent US8431563B2 (priority 2010, dated 2013).

Protein sequences, listed by entry. Tags and fused reporters are not part of them.
UniProt Q14397, whole entry: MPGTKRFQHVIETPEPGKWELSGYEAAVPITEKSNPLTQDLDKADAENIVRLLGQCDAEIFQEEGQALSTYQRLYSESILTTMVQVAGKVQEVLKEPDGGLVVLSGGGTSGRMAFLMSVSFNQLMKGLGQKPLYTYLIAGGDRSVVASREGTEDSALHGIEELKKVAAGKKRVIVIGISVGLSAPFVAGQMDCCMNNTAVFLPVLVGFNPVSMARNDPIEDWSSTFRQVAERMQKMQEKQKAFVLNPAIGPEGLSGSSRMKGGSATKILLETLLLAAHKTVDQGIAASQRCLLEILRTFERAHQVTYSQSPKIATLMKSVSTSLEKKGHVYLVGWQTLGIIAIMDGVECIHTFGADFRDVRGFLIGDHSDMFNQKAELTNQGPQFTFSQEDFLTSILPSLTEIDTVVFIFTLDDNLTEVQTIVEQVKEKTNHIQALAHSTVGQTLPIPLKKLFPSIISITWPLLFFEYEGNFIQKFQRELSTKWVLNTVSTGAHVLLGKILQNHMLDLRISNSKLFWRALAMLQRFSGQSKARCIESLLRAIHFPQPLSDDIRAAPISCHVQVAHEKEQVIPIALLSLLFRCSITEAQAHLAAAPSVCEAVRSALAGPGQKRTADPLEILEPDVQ

How the values were obtained:
[1] = biological target: interaction between glucokinase (GK) and glucokinase regulatory protein (GKRP) (Homo sapiens, UniProt Q14397); conditions: read-out: GK-GKRP IC50 (Binding); avi-tagged GKRP, GK-fluorescein, AlphaScreen beads
[2] = biological target: GKRP (Glucokinase Regulatory Protein) with human His-hepatic GK (Homo sapiens, UniProt Q14397); conditions: read-out: GK-GKRP EC50 (LC MS/MS-2); 13C-glucose-6-phosphate formation; 280 nM GKRP (10×), 30 nM GK (5×)

| SMILES | IC50 [1] | EC50 [2] |
| --- | --- | --- |
| CC(O)(c1ccc(N2CCN(S(=O)(=O)c3ccc(N)nc3)C[C@@H]2CC2CCOCC2)cc1)C(F)(F)F (single isomer, unassigned) [Example 127 Peak #2] | 48 nM | 72 nM |
| CC(O)(c1ccc(N2CCN(S(=O)(=O)c3ccc(N)nc3)C[C@@H]2CC2CCOCC2)cc1)C(F)(F)F (single isomer, unassigned) [Example 127 Peak #1] | 51 nM | 98 nM |
